Results taken from ChEMBL document CHEMBL1148370, “Studies toward the discovery of the next generation of antidepressants. 3. Dual 5-HT1A and serotonin transporter affinity within a class of N-aryloxyethylindolylalkylamines” (J Med Chem, 2004).

The chains behind the UniProt entries cited, without tags or fusion partners.
UniProt P08908, whole entry: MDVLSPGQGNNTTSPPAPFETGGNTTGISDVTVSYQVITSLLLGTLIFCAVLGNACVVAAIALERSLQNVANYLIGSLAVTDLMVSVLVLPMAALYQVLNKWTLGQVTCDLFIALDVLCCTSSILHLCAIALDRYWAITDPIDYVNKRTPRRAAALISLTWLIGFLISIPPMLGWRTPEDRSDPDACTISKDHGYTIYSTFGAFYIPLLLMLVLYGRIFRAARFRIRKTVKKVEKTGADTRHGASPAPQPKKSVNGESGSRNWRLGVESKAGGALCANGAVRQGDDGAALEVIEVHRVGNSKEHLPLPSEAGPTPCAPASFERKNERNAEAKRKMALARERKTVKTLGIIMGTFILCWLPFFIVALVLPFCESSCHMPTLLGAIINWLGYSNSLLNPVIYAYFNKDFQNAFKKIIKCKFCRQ

Target: 5-hydroxytryptamine receptor 1A (Homo sapiens, UniProt P08908)

EC50 | Compound
0.004 µM | c1ccc2c(CCCNCCOc3cccc4[nH]ccc34)c[nH]c2c1
0.044 µM | COc1ccccc1OCCNCCCCc1c[nH]c2ccccc12
